Source: paper PMC7723054
The list shows a part of the results.

T1: LIN28A (human?, UniProt Q9H9Z2 1-209)
T1 sequence: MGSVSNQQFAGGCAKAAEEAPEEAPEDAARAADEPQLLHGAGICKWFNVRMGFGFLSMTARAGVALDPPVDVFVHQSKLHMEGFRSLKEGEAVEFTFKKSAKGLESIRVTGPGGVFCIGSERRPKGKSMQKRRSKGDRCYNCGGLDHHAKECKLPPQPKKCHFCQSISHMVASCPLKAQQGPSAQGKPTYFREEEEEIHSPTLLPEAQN

T2: CIRBP (Homo sapiens, UniProt Q14011 1-172)
T2 sequence: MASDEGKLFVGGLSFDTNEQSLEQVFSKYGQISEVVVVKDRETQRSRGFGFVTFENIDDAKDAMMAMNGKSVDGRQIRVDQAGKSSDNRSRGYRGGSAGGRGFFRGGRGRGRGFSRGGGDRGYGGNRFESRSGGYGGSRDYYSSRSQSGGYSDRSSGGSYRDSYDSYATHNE

T3: DHX36 (Homo sapiens, UniProt Q9H2U1 1-1008)
T3 sequence: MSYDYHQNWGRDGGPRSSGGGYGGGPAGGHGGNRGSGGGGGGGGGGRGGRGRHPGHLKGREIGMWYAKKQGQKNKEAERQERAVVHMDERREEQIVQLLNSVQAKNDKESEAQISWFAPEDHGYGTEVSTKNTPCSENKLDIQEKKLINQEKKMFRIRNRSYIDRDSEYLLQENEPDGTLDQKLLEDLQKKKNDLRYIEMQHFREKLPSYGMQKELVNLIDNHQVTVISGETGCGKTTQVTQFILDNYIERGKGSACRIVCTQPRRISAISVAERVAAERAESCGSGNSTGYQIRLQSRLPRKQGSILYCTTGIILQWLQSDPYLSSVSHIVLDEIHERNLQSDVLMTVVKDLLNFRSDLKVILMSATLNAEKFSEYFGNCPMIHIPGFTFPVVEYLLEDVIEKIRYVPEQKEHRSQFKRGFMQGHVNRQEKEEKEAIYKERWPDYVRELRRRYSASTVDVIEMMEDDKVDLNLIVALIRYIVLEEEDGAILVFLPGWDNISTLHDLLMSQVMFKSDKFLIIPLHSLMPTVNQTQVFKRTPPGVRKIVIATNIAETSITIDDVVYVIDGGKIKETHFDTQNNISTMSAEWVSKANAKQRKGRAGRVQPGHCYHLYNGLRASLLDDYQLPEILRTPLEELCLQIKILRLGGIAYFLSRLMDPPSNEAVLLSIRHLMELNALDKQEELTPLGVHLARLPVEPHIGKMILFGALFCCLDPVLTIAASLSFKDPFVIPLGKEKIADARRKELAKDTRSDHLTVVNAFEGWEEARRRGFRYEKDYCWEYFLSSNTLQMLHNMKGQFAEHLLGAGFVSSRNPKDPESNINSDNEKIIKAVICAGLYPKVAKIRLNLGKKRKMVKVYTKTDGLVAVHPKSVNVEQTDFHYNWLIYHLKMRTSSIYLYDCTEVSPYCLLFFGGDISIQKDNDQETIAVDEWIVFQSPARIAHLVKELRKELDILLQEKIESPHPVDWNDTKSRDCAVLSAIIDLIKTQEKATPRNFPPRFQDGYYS

B1: hsa-mir-1307 (structured_RNA)
RNA: GGGAAGUCUUGAUACUGUAACCCGGUGGGGUGUACGAAGUUUCAGCGGCUCGUCUGUGUUGCCAAUCGACUCGCUGAAGCUUCGUGCAC
B2: hsa-mir-517c_517b (structured_RNA)
RNA: GGGAAAGGUCAAACGGUAUUCUCGUACCGGUGUACGAAGUUUCAGCCUGUCUGUUGUCUAAGAAAAGAUCGGCUGAAGCUUCGUGCAC
B3: hsa-mir-514a-2_514a-3 (structured_RNA)
RNA: GGGACUCUAUGGCACCGAUAUGAUACCUGGUGUACGAAGUUUCAGCCAAUCAUGUAUAACUAAAUUUGAUUGGCUGAAGCUUCGUGCAC
B4: hsa-mir-552 (structured_RNA)
RNA: GGGAUUAGUAUCAUGAAAGACGAUGGCGGGUGUACGAAGUUUCAGCUGUUGGUUGAAGAUGCCUUUCAACAGCUGAAGCUUCGUGCAC
B5: hsa-mir-34b (structured_RNA)
RNA: GGGACGCUACUAGUGGUAUAUUGGACAAGGUGUACGAAGUUUCAGCAUUGUACUGUGGUGGUUACAAUGCUGAAGCUUCGUGCAC
B6: hsa-mir-421 (structured_RNA)
RNA: GGGAAUGACUAGUCGCGUUAGAUGCGGGGGUGUACGAAGUUUCAGCGAAUGAAAAAAUGAAUCAUCGCUGAAGCUUCGUGCAC
B7: hsa-mir-555 (structured_RNA)
RNA: GGGACGAGUGCAAAUGUGGCAUUAUCGAGGUGUACGAAGUUUCAGCCCUUUGUGAGCAGUGUGACCCAAGGCCUGUGGACAGGGGCUGAAGCUUCGUGCAC
B8: hsa-mir-4466 (structured_RNA)
RNA: GGGAAUUGACGUGAUCAUACACGGUGCUGGUGUACGAAGUUUCAGCGGGGUAGAAGCCACCCGGCUGAAGCUUCGUGCAC
B9: hsa-mir-4703 (structured_RNA)
RNA: GGGAAUCUUCGAGCACGGCAGUUCAAACGGUGUACGAAGUUUCAGCUAUAGUGUGUUUGAUUUGCACUGUAGCUGAAGCUUCGUGCAC
B10: hsa-mir-630 (structured_RNA)
RNA: GGGAAAGAGUGGAGCACCUUCUUAAUACGGUGUACGAAGUUUCAGCUAUUUUGUUAUUCUGGUCACAGAAUGACCUAGUAGCUGAAGCUUCGUGCAC
B11: hsa-mir-6742 (structured_RNA)
RNA: GGGCCAGUCGAACUAGAGCCAACCGGUCGGUGUACGAAGUUUCAGCAGCUGUUGGCCAUGGCGACAACACCUGCUGAAGCUUCGUGCAC
B12: hsa-mir-106b (structured_RNA)
RNA: GGGACGCGCGGACGCAAUACAGAAAUAAGGUGUACGAAGUUUCAGCGCAGAUAGUGGUCCUCUCCGUGCUACCGCGCUGAAGCUUCGUGCAC
B13: hsa-mir-6793 (structured_RNA)
RNA: GGGAGCUCAUCGGAAGUGAAUCCGUUAUGGUGUACGAAGUUUCAGCGGGUGAUACACAAGCCUGACCCUCCCGCUGAAGCUUCGUGCAC
B14: hsa-mir-4717 (structured_RNA)
RNA: GGGACCGACAAUGGAGGGACCCUUAUGCGGUGUACGAAGUUUCAGCGUGUAGGGGUGGCUACACGCUGAAGCUUCGUGCAC
B15: hsa-mir-526a-2 (structured_RNA)
RNA: GGGACGAAAAGCAUUGCGGCAAGAUAUAGGUGUACGAAGUUUCAGCCUGUUGAAAGAAAAGGCUGAAGCUUCGUGCAC
B16: PARIS_ID35 (structured_RNA)
RNA: GGGAAGACGUUAGAUGGACUCCGUGACCGGUGUACGAAGUUUCAGCGUGCUGCGGGGAUCUCUUUUGCAUCCCUCUGGGUGCAGAGCUGAGGCACCCAGAGGCAGUGUCCAGAGGAGGCAGCAUGCUGAAGCUUCGUGCAC
B17: hsa-mir-5096 (structured_RNA)
RNA: GGGAGGAAGCGAAAUAUCACAAACGGAAGGUGUACGAAGUUUCAGCAGGCUGGUCUCAAACUCCUGCUGAAGCUUCGUGCAC
B18: hsa-mir-4427 (structured_RNA)
RNA: GGGACCUUUAGGACAAUUUGAACCAGGCGGUGUACGAAGUUUCAGCUAGACAAUGGUUUCAUCAUUUCGUCUGGCUGAAGCUUCGUGCAC
B19: hsa-mir-6846 (structured_RNA)
RNA: GGGACCCCACGAGAUGAUAUCGACGGCUGGUGUACGAAGUUUCAGCUAGAGUAGGAGAGCCCACUGAGCUGAAGCUUCGUGCAC
B20: hsa-mir-6738 (structured_RNA)
RNA: GGGAGUGAUGGAAUGAAUGCGAACCGCAGGUGUACGAAGUUUCAGCCAGGGGUUCUGAUAAACCCUUCGCUGAAGCUUCGUGCAC
B21: hsa-mir-550a-2 (structured_RNA)
RNA: GGGAAUUGAUGCUGGACGACGUACUCAAGGUGUACGAAGUUUCAGCAGCCCUGUUGUUGUCAGAUAGUGUGCUGAAGCUUCGUGCAC
B22: hsa-mir-4321 (structured_RNA)
RNA: GGGACGAGCAAACUGAUGAGUUUGGCACGGUGUACGAAGUUUCAGCGAGACACCCGCUACCUGGUGUUGCUGAAGCUUCGUGCAC
B23: PARIS_ID20 (structured_RNA)
RNA: GGGAAAGCAAUAACUGUGCCGAUGAGUCGGUGUACGAAGUUUCAGCUUUUCUAGUGAUGGCUUUGAGGUUAUUUGCAGUUUCCUAGCCAUCUCAAAGUGUGCUGCGGGGAGCUGAAGCUUCGUGCAC
B24: hsa-mir-4280 (structured_RNA)
RNA: GGGAUUCGUAGCAGACAAAGCGAGGUGCGGUGUACGAAGUUUCAGCGAGCCUUAAAGGAUGAGGUAGCUGAAGCUUCGUGCAC
B25: hsa-mir-3074 (structured_RNA)
RNA: GGGAAGUGUCCAUAUAUACCUGGAUAGGGGUGUACGAAGUUUCAGCGCCAGUGUGUAAAAUGAGAACUGAUAGCUGAAGCUUCGUGCAC
B26: hsa-mir-6818 (structured_RNA)
RNA: GGGACGUUUUAGUGCUAGACCGUGCUUCGGUGUACGAAGUUUCAGCAGCAUCUGAAUGGGUACAGUUGUUGUGCUGAAGCUUCGUGCAC

Tests used:
Assay in all cases: FOREST: bead pull-down of RNA structure library v1, barcode microarray; U1A/LIN28A: 20 mM HEPES pH 7.5, 80 mM KCl, 20 mM NaCl, 10% glycerol, 2 mM DTT, 0.1 ug/uL BSA, 4 C; BG4/CIRBP/DHX36: 10 mM Tris-HCl pH 7.5, 100 mM KCl (or LiCl),; high values mean tight binding
[1] = biological target: T1, LIN28A
[2] = biological target: T2, CIRBP
[3] = biological target: T3, DHX36

| Binder | binding signal [1] [z-score] | binding signal [2] [z-score] | binding signal [3] [z-score] |
| --- | --- | --- | --- |
| B1 | 0.341 | 0.315 | 0.705 |
| B2 | 0.357 | 0.14 | -0.0295 |
| B3 | 0.359 | -0.106 | -1.16 |
| B4 | 0.374 | 0.962 | 1.26 |
| B5 | 0.332 | -0.707 | -0.0441 |
| B6 | 0.359 | 0.857 | 0.216 |
| B7 | 0.329 | 0.518 | 0.0992 |
| B8 | 0.374 | 1.05 | 1.04 |
| B9 | 0.344 | 0.423 | -0.134 |
| B10 | 0.32 | 1.66 | -0.291 |
| B11 | 0.358 | -0.588 | 0.489 |
| B12 | 0.377 | 0.756 | -0.0714 |
| B13 | 0.332 | -1.17 | -0.458 |
| B14 | 0.336 | -0.228 | 0.214 |
| B15 | 0.351 | 0.302 | 1.51 |
| B16 | 0.141 ± 0.235 | -0.285 ± 0.24 | -0.112 ± 0.609 |
| B17 | 0.339 | -1.41 | 1.73 |
| B18 | 0.377 | 1.07 | -0.346 |
| B19 | 0.358 | -0.327 | -0.501 |
| B20 | 0.348 | 0.56 | -0.122 |
| B21 | 0.371 | 0.183 | 0.32 |
| B22 | 0.327 | -0.242 | -0.133 |
| B23 | 0.351 | -1.08 | -0.331 |
| B24 | 0.319 | -0.236 | -0.115 |
| B25 | 0.354 | 0.369 | -0.958 |
| B26 | 0.352 | 0.42 | -0.437 |
